# Compounds with a hit are over-represented: about 1.3% of the library has one in this group of screens.
# MLL AF4-AF9 inh = MLL-AF4/AF9 protein interaction inhibition. P42568. AlphaScreen, biotin-AF4 peptide binding to FLAG-AF9. inhibition, % at 10 µM. hit rate 0.47% among 350,000. AID 651704;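 active means every replicate reaching a set inhibition limit, whatever the replicate mean, cut at about 25% in these data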;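 further: 0% = plate neutral control median and 100% = total signal loss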
# S100A4 inh HTS = blocks human S100A4 binding to myosin IIA peptide | AID 652163 | S100A4/TAMRA-MyoIIA peptide fluorescence polarization | hit rate 0.14% among 360,000 | P26447 | inhibition, % at 10.7 µM;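 active means mean inhibition of at least 70% across replicates, with every replicate also reaching that level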
#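 Test system – S100A4 monomer (human) · Compound – single-point compound testing · Schedule – 5 min incubation before reading · Probe or stimulus – TAMRA-labelled myosin IIA heavy-chain peptide probe, 5 nM · Benchmarks – neutral control DMSO, positive control TFP · Medium – Calcium-containing HEPES buffer, pH 7.2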
# Yeast UUG start = modulators of yeast start codon fidelity, primary screen, whole organism, S. cerevisiae, single point, plate reader | AID 602363, 2012 | actives 0.13% (n = 350,000) | activity score, % at 18.7 µM | S. cerevisiae UUG-firefly luciferase reporter, luminescence/redox ratio;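 active means replicate mean at a twofold rise or more, about +100% in these data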;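 further: firefly luciferase made from a UUG start codon reports start codon fidelity; reporter light over untreated wells divided by growth signal over untreated wells; some hits fall short of that in this replicate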
# E-sel inducer = E-selectin induction on HUVECs; P16581; HUVEC E-selectin immunofluorescence imaging; normalized: neutral wells 0, TNF-alpha wells 100; activation, % at 7.58 µM; hit rate 0.37% among 260,000; AID 686992;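 active means mean E-selectin-positive cell signal at least 10% of the positive control, reached in at least 60% of replicates, without over 20% cell loss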
#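 Test system: HUVEC | Signal: Immunofluorescence imaging | Read-out: Percent E-selectin-positive cells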
# ERAP1 inh = inhibitors of human ERAP1 aminopeptidase | AID 652197 | recombinant ERAP1, Leu-AMC fluorescence, 60 min | inhibition, % at 10.7 µM | Q9NZ08 | hit rate 0.15% among 340,000;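 active means mean replicate inhibition of at least 30%, or all replicates individually reaching that 30% level; inactive means mean below 30% and not every replicate reaching it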;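 further: 0% = neutral control wells and 100% = L-leucinethiol positive control wells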
# ARNT-TACC3 inh = disrupts binding between human ARNT and TACC3 | inhibition, % at 9.99 µM | AID 623870 | Q9Y6A5 | hit rate 0.66% among 390,000 | AlphaScreen His-ARNT PAS-B/GST-TACC3 binding, luminescence; TACC3 fragment carries E629A point mutation;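 active means mean inhibition of replicates at least 50% and at least half of replicates each reaching 50%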;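 further: 0% = complete ARNT plus TACC3 wells and 100% = ARNT alone without TACC3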
# * = called active by the depositor; . = no result.
Structure | MLL AF4-AF9 inh | S100A4 inh HTS | Yeast UUG start | E-sel inducer | ERAP1 inh | ARNT-TACC3 inh
Cc1nccn1CC(=O)N/N=C/c1ccccc1O | 0 | 4 | . | 0 | 2 | 74*
Cc1nccn1CC(=O)N/N=C/c1c[nH]c2ccccc12 | 0 | 9 | -30 | 2 | 3 | -6
O=C(N/N=C/c1ccccc1O)c1ccncc1 | -3 | -4 | -18 | 1 | -3 | 66*
O=[N+]([O-])c1cc(/C=N/N/C(=N/c2ccccn2)c2ccccn2)ccc1O | 3 | 6 | . | . | 6 | 66*
O=[N+]([O-])c1ccc(/C=N/N/C(=N/c2ccccn2)c2ccccn2)cc1 | -37 | -1 | -13 | . | 0 | 16
OCc1ccc(-c2nn(Cc3ccccc3)c3ccccc23)o1 | 9 | 0 | -15 | 117* | 4 | .
C[N+]1(CC(O)c2ccccc2)CCCCCC1 (stereo not drawn) | 0 | 4 | 4 | . | 43* | -3
C[C@@H]1CN([C@@H](C)CO)C(=O)c2cc(C3=CCCCC3)cnc2O[C@@H]1CN(C)C(=O)c1ccc2c(c1)OCO2 | -3 | 12 | 10 | 0 | 0 | 3
O=c1c2ccccc2sc2ccc(NCCCN3CCOCC3)cc12 | 14 | 3 | 1 | 1 | . | 2
COc1cc2sc3cc(NCCCN4CCOCC4)ccc3c(=O)c2cc1OC | 3 | -9 | 8 | 0 | . | 28*
COc1ccc2c3c(n(C)c2c1)[C@@H](CO)N(C(=O)Nc1ccc(F)cc1)CC31CCN(C(=O)CN2CCOCC2)CC1 | -2 | -1 | . | -1 | 4 | .
S=c1sc2c(Cl)ncnc2n1-c1ccccc1 | 3 | 1 | -33 | 1 | 14 | 69*
C[C@@H]1CN([C@@H](C)CO)S(=O)(=O)c2ccc(C#CC3CC3)cc2O[C@@H]1CN(C)C(=O)c1ccccn1 | 0 | 2 | -13 | 3 | -1 | 0
S=C(NCCCN1CCOCC1)N1CCN(c2nc(-c3ccccc3)cs2)CC1 | 15 | 10 | -25 | 0 | 9 | -6
S=C(NCCCN1CCOCC1)N1CCN(c2nc(-c3ccc(Cl)cc3)cs2)CC1 | 33* | 8 | -8 | 0 | -1 | 3
CCOC(=O)Nc1sc(C)nc1-c1ccccc1 | -71 | 2 | -15 | . | -2 | 1
CCOC(=O)Nc1cc2c(c(N)n1)N=C(c1ccccc1)CN2 | -7 | 5 | . | 0 | 2 | 8.7*
COc1ccc(OC)c(NC(=O)Nc2nc(C(N)c3ccccc3Cl)cs2)c1 (stereo not drawn) | 26* | -3 | -18 | 0 | -2 | .
COc1ccc(OC)c(NC(=O)Nc2nc(C(N)C(C)C)cs2)c1 (stereo not drawn) | 20 | -6 | -15 | 0 | -2 | .
COc1cccc(/C=N/NC(=O)c2ccc([N+](=O)[O-])cc2Cl)c1O | . | . | . | . | . | 59*

# Record cards (already shown):
# Listed for CCOC(=O)Nc1cc2c(c(N)n1)N=C(c1ccccc1)CN2 : MLL AF4-AF9 inh: -7; S100A4 inh HTS: 5; Yeast UUG start: .; E-sel inducer: 0; ERAP1 inh: 2; ARNT-TACC3 inh: 8.7*
# Listed for OCc1ccc(-c2nn(Cc3ccccc3)c3ccccc23)o1 : MLL AF4-AF9 inh: 9; S100A4 inh HTS: 0; Yeast UUG start: -15; E-sel inducer: 117*; ERAP1 inh: 4; ARNT-TACC3 inh: .

# Next section:
Structure | MLL AF4-AF9 inh | S100A4 inh HTS | Yeast UUG start | E-sel inducer | ERAP1 inh | ARNT-TACC3 inh
COc1cc([N+](=O)[O-])cc(/C=N/NC(=O)c2cc(C)nc3ccccc23)c1O | 2 | -5 | . | -1 | 3 | 64*
COc1cc([N+](=O)[O-])cc(/C=N/NC(=O)c2cncc(Br)c2)c1O | 13 | 2 | -24 | 0 | . | 69*
COCC(=O)N(C)C[C@@H]1Oc2cc(C#CC(C)(C)O)ccc2S(=O)(=O)N([C@H](C)CO)C[C@@H]1C | -2 | 2 | 2 | 0 | 0 | -9
CCOc1ccc(NCc2cccn2-c2nnc(N3CCC(C(=O)NCCCN4CC(C)CC(C)C4)CC3)s2)cc1 (stereo not drawn) | 40* | 0 | -14 | . | 1 | 12
O=C(c1cccc(NC2=NC3CS(=O)(=O)CC3S2)c1)N1CCN(c2ncccn2)CC1 (stereo not drawn) | 2 | 7 | -22 | 0 | 1 | -6
COc1ccc(N2CCN(C(=O)c3cccc(NC4=NC5CS(=O)(=O)CC5S4)c3)CC2)cc1 (stereo not drawn) | 0 | 2 | -18 | 53* | -3 | -27
CC(=O)c1ccc(N2CCN(C(=O)c3ccc(Cl)c(NC4=NC5CS(=O)(=O)CC5S4)c3)CC2)cc1 (stereo not drawn) | -1 | -4 | -6 | . | 4 | 2
CCOC(=O)C1CCN(C(=O)c2ccc(Cl)c(NC3=NC4CS(=O)(=O)CC4S3)c2)CC1 (stereo not drawn) | 25* | -9 | -18 | . | 1 | -12
COCC(=O)Nc1ccc2c(c1)OC[C@@H](C)N(C(=O)C1CCCC1)C[C@H](C)[C@H](OC)CN(C)C2=O | . | . | . | 0 | . | -5
CC(Oc1cccc(Br)c1)C(=O)NNC(=O)c1ccccn1 (stereo not drawn) | . | . | -49 | . | . | .
COc1ccc(OCC(=O)NNC(=O)c2ccccn2)cc1 | . | . | . | . | . | 67*
CC(Oc1ccccc1)C(=O)NNC(=O)c1ccccn1 (stereo not drawn) | 2 | 0 | -16 | . | 4 | 51*
COc1ccc(OCC(=O)NCCNC(=O)c2ccccn2)cc1 | 3 | -4 | -19 | . | 2 | -17
O=C(NNC(=O)c1ccccn1)c1cccc([N+](=O)[O-])c1 | -1 | -1 | . | 0 | -2 | 67*
CC(C)C(=O)NNC(=O)c1ccccn1 | -17 | -4 | . | . | -1 | 51*
C[C@H](CO)N1C[C@H](C)[C@@H](CN(C)C(=O)Nc2ccc3c(c2)OCO3)OCCCC[C@H](C)Oc2ccc(NC(=O)CCC(F)(F)F)cc2C1=O | 2 | 4 | 12 | 0 | 5 | 23
Cc1cccc(NC(=O)NNC(=O)c2ccccn2)c1 | 1 | 0 | -13 | 1 | -1 | 48*
Cc1cccc(NC(=O)c2cccc(C(=O)Nc3cccc(C)c3)n2)c1 | -2 | 4 | . | 0 | . | -4
C[C@H]1CN([C@@H](C)CO)C(=O)c2cc(NC(=O)CCC(F)(F)F)ccc2O[C@H]1CN(C)Cc1ccc(Oc2ccccc2)cc1 | 4 | -5 | 8 | 0 | -1 | 1
C[C@@H]1CN([C@@H](C)CO)C(=O)Cc2cc(NS(=O)(=O)c3ccc(F)cc3)ccc2O[C@@H]1CN(C)S(=O)(=O)c1ccc(Cl)cc1 | . | . | -12 | 102* | . | -6

# For reference, 3 of the compounds above.
Structure | MLL AF4-AF9 inh | S100A4 inh HTS | Yeast UUG start | E-sel inducer | ERAP1 inh | ARNT-TACC3 inh
O=C(c1cccc(NC2=NC3CS(=O)(=O)CC3S2)c1)N1CCN(c2ncccn2)CC1 (stereo not drawn) | 2 | 7 | -22 | 0 | 1 | -6
COc1ccc(N2CCN(C(=O)c3cccc(NC4=NC5CS(=O)(=O)CC5S4)c3)CC2)cc1 (stereo not drawn) | 0 | 2 | -18 | 53* | -3 | -27
CC(=O)c1ccc(N2CCN(C(=O)c3ccc(Cl)c(NC4=NC5CS(=O)(=O)CC5S4)c3)CC2)cc1 (stereo not drawn) | -1 | -4 | -6 | . | 4 | 2

# The results go on.
Structure | MLL AF4-AF9 inh | S100A4 inh HTS | Yeast UUG start | E-sel inducer | ERAP1 inh | ARNT-TACC3 inh
C[C@@H]1CN([C@H](C)CO)C(=O)Cc2cc(NS(=O)(=O)c3ccc(F)cc3)ccc2O[C@@H]1CN(C)S(=O)(=O)c1ccc(Cl)cc1 | . | . | -1 | 69* | . | -2
C[C@@H]1CN([C@H](C)CO)C(=O)Cc2cc(NS(=O)(=O)c3ccc(Cl)cc3)ccc2O[C@H]1CN(C)S(=O)(=O)c1ccc(F)cc1 | 1 | -1 | 19 | -1 | 2 | -8
C[C@H]1CN([C@@H](C)CO)C(=O)Cc2cc(NS(=O)(=O)c3ccc(F)cc3)ccc2O[C@H]1CN(C)S(=O)(=O)c1ccc(Cl)cc1 | . | . | 4 | 198* | . | -2
C[C@H](CO)N1C[C@H](C)[C@@H](CN(C)S(=O)(=O)c2ccc(F)cc2)Oc2ccc(NS(C)(=O)=O)cc2CC1=O | -3 | 3 | 3 | 311* | 3 | -1

# Assay outcomes deposited in PubChem by Broad Institute.
